Assay results: US5872097A, “Oligopeptides with affinity to opioid receptors” (Pharmacia & Upjohn Aktiebolag, priority 1992, dated 1999)

Protein sequences, listed by entry. Tags and fused reporters are not part of them.
UniProt P33535, whole entry: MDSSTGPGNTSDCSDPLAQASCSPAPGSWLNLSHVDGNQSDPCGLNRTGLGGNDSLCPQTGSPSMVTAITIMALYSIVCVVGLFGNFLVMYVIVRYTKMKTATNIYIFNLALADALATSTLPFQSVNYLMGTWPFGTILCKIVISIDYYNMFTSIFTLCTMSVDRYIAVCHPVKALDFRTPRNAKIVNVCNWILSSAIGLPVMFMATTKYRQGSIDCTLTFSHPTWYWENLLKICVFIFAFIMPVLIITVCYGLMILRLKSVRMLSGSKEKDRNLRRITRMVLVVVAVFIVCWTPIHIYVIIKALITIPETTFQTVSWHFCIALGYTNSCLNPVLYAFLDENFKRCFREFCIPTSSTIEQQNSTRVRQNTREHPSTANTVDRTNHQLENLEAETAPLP

Assays:
μ-receptor = biological target: T1, μ-receptor (Rattus norvegicus, UniProt P33535); experiment: (3H)-DAMGO displacement receptor assay; details: displacement of (3H)-DAMGO specific binding, radioligand about 24 x 10^-10 M; LIGAND program
T1 construct: from tissue; host or cells: rat brain (homogenate / synaptic plasma membranes, whole brain without cerebellum)
Procedure: (§1) In the experiments noted in FIGS. 3 and 4 and in Table 1 (^3 H)-(D-Ala^2,MePhe^4,Gly-ol^5)-enkephalin (DAGO or DAMGO) and (^3 H)-(D-Ala^2,D-Leu^5)-enkephalin (DADL) purchased from Amersham (Buckinghamshire, England) were used as radioligands in a binding assay performed as in Reg.
(§2) The peptides were employed for both receptor tests and bioassays on electrically stimulated guinea pig ileum strips (GPI-tests). The receptor assays were performed in the same manner as above with DAMGO as a radioligand to the μ-receptor. In the assays (^3 H)-DAMGO specific binding was displaced by the different tested substances (10^-5 M to 10^-10 M). […] Ups. […] The magnitude of activity in relation to a standard compound, normorphine was recorded.

[1] = biological target: T2, μ-receptor ((3H)-DAGO binding site) (Rattus norvegicus, UniProt P33535); experiment: (3H)-DAGO binding assay, rat brain homogenates; details: duplicate determination, one site model, EBDA/LIGAND
T2 construct: from tissue; host or cells: rat brain (homogenate / synaptic plasma membranes, whole brain without cerebellum)
Source text: as §1
(§3) In the publication β-Casomorphins and Related Peptides Ed.

[2] = biological target: T3, δ-receptor ((3H)-DADL binding site) (Rattus norvegicus, UniProt P33533); experiment: (3H)-DADL binding assay, rat brain homogenates; details: duplicate determination, one site model, EBDA/LIGAND
T3 construct: from tissue; host or cells: rat brain homogenate
Source text: as §1, §3

[3] = test system: electrically stimulated guinea pig ileum strips; details: relative to standard compound normorphine = 1
Procedure: as §2

Row | SMILES | IC50 (μ-receptor) [nM] | Ki [1] [µM] | Ki [2] [µM] | GPI-test relative activity normorphine = 1 [3]
1 | CSCC[C@H](NC(=O)[C@H](Cc1ccccc1)NC(=O)[C@@H](C)NC(=O)[C@@H](N)Cc1ccc(O)cc1)C(=O)O [Tyr-D-Ala-Phe-Met, reference compound] | 0.64 |  |  | 
2 | CC(C)C[C@H](NC(=O)[C@H](Cc1ccccc1)NC(=O)[C@H](CO)NC(=O)[C@@H](N)Cc1ccc(O)cc1)C(=O)N[C@@H](CCC(=O)O)C(=O)O [Tyr-Ser-Phe-Leu-Glu] | 7.3 | 7.4 | 5.8 | < 0.01
